High-throughput results: PubChem, National Center for Advancing Translational Sciences (NCATS)
ALOX12 inh = Primary qHTS assay for inhibitors of human arachidonate 12S-lipoxygenase (ALOX12): Round 2. hit rate 1.1% among 580,000. AID 1671190, 2021. Potency, µM (titrated, usually from 108 µM), for inactives: top-dose activity change, negative = inhibition, actives largely listed as inhibitors. purified 12hLO, xylenol orange hydroperoxide absorbance. Polyunsaturated fatty acid lipoxygenase ALOX12 (Homo sapiens), P18054; active means well fitted curve in the direction sought with a large enough effect; inconclusive means small, poorly fitted or top-dose-only effect, or another doubt; inactive means no such curve, though single readings can be large; an effect the other way counts as inactive or inconclusive; further: on the % scale 0 is the no-effect control and ±100 the full control effect
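Purified human 12hLO (150 nM final) in 25 mM Hepes, 0.01% Triton X-100, pH 7.0 was preincubated 15 min at room temperature with compound. Then 40 uM arachidonic acid was added, 30 min. Hydroperoxide was read by Fe-XO absorbance ratio 573/405 nm.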
ClpP mod = qHTS Assay for Activators of ClpP | ATP-dependent Clp protease proteolytic subunit (Bacillus subtilis (strain 168)), P80244 | purified B. subtilis ClpP, FRET peptide cleavage, 20 min | Potency, µM (top dose mostly 57.5 µM), for inactives: top-dose activity change, negative = active | hit rate 1.9% among 340,000 | AID 651965, 2013; active means well fitted falling curve with a large enough effect; inconclusive means small, poorly fitted or top-dose-only effect; inactive means no such curve, though single readings can be large or run the other way; further: the source files actives as falling curves though it sought activators and does not explain the sign; nearly all actives have a fitted effect of over 65% in size
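FRET quenching reversal measured ClpP activation: 10 microg/mL B. subtilis ClpP at pH 8 with the FRET-FV decapeptide, read at 430 nm after 320 nm excitation. The 20-min minus 0-min signal was scaled between DMSO/no-enzyme wells and ADEP (5.8 microM final).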
TDP1 block = qHTS Assay for Inhibitors of Tyrosyl-DNA Phosphodiesterase (TDP1); recombinant TDP1, AlphaScreen DNA substrate cleavage; Potency, µM (series often up to 130 µM), for the others: at the top dose activity change, negative = inhibition, most hits filed as inhibitors; Tyrosyl-DNA phosphodiesterase 1 (Homo sapiens), Q9NUW8; hit rate 0.28% among 350,000; active means well fitted curve in the direction sought with a large enough effect; inconclusive means small, poorly fitted or top-dose-only effect, or another doubt; inactive means no such curve, though single readings can be large; an effect the other way counts as inactive or inconclusive; further: on the % scale 0 is the no-effect control and ±100 the full control effect; nearly all actives have a fitted effect of over 40% in size
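E. coli-derived human Tdp1, 1 nM final. Cpd preinc 15 min RT; substrate 15 nM final, 5 min RT; AS bead mix 10 ug/ml final, 10 min RT. Signal loss = tyrosine-FITC cleavage. No-enzyme wells = max signal.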
Rango dissoc inh = qHTS Assay for Inhibitors of RanGTP induced Rango (Ran-regulated importin-beta cargo) - Importin beta complex dissociation; Snurportin-1 (Homo sapiens) + GTP-binding nuclear protein Ran (Homo sapiens) + Importin …; Biochemical FRET Rango-importin beta, RanGTP-induced dissociation; Potency, µM (highest dose often 46.1 µM), for the others: at the highest dose activity change, negative = inhibition; hit rate 0.071% among 340,000; AID 540253, 2011; further: % of control where 0% means no effect; nearly all actives have a fitted effect of over 45% in size
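Quantitative HTS using a FRET biosensor: 0.1 uM Rango, 0.25 uM importin beta, 0.6 uM Ran, 2 mM GTP, 0.2 uM RCC1 final, PBS with DTT, Tween-20 and BSA. Post-read taken 45 min after Ran addition.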
TSG101-PTAP inh = qHTS Assay for Iinhibitors of HIV-1 Budding by Blocking the Interaction of PTAP/TSG101; Potency, µM (highest dose often 115 µM), without a hit: at the top dose activity change, negative = inhibition, hits mostly inhibitors; AID 493005, 2010; 340,000 tested, under 10 active; Tumor susceptibility gene 101 protein (Homo sapiens), Q99816; Fluorescence polarization, FITC-PTAP peptide / Tsg101 binding; active means well fitted inhibition curve with a large enough effect in the main read-out, with a control signal flat, not every such curve was filed as active; inconclusive means small, poorly fitted or top-dose-only effect, or effect the other way, or a change in a side signal; inactive means no such curve, though single readings can be large or run the other way; further: % of control where 0% means no effect
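Fluorescence polarization binding of Tsg101 binding domain (10 uM final) to FITC-labeled PTAP peptide (50 nM final) in HEPES pH 7.5 buffer with NaCl, Tween 20, EDTA, TCEP. Compounds added before peptide; binding 20 min at RT.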
Rango complex inh = qHTS Assay for Inhibitors of Rango (Ran-regulated importin-beta cargo) - Importin beta complex formation. Rango CFP/YFP FRET sensor + importin beta, 45 min. Potency, µM (top dose mostly 92.2 µM), for inactives: at the highest dose inhibition of complex formation. hit rate 0.031% among 340,000. AID 540263, 2011;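 further: 0% = DMSO wells and 100% = buffer wells lacking importin beta; nearly all actives have a fitted effect of over 15% in size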
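FRET biosensor (snurportin 1 IBB flanked by EYFP and cerulean), 50 nM, with compound 5 min, then 0.125 microM importin beta in PBS, 1 mM DTT, 0.02% Tween-20, 0.1% BSA. CFP/YFP ratio read after 45 min at room temperature; pre-read flags interference.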
* hit, by the source's call; ? = inconclusive; . = no result; [ ] = remark or other dose. Rows were chosen to be rich in hits. Some 2.4% of all compounds tested hit in one or more screens of this group. Unless noted, the call rests on the fitted dose curve. Potency means the concentration at half of the fitted maximal effect.

Protein sequences, listed by entry. Tags and fused reporters are not part of them.
Tyrosyl-DNA phosphodiesterase 1 (Homo sapiens), Q9NUW8, UniProt Q9NUW8, whole entry, looked up: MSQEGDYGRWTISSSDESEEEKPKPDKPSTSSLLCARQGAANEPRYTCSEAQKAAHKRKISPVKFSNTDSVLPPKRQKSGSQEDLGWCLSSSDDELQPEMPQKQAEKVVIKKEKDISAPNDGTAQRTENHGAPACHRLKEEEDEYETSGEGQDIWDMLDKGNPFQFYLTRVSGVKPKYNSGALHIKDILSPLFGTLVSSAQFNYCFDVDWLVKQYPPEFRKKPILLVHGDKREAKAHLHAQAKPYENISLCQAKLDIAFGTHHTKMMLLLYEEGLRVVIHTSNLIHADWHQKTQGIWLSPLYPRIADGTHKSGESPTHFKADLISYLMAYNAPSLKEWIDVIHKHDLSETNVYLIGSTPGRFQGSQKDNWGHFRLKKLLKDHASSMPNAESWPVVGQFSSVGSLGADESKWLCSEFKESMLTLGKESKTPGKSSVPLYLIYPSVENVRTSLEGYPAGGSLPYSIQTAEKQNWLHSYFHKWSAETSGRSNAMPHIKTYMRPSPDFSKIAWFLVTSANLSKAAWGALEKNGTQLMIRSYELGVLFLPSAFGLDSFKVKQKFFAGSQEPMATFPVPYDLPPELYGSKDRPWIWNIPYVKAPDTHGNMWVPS
Tumor susceptibility gene 101 protein (Homo sapiens), Q99816, UniProt Q99816, whole entry, looked up: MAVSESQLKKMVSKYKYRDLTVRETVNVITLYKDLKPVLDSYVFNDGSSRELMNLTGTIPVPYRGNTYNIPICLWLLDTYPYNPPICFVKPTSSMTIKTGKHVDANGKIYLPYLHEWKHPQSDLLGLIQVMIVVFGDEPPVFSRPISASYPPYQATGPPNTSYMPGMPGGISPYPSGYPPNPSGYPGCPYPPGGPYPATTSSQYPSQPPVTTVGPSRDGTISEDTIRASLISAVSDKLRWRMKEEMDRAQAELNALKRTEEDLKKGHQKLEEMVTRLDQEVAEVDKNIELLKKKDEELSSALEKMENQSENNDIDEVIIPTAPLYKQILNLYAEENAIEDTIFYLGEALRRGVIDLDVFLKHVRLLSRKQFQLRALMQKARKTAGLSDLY

SMILES	ALOX12 inh	ClpP mod	TDP1 block	Rango dissoc inh	TSG101-PTAP inh	Rango complex inh
O=C(O)c1ccc(N/N=C/c2cccc(C(F)(F)F)c2)cc1	-4%	-4%	.	-8%	-3%	2%
FC(F)(F)c1cccc(/C=N/Nc2ccc(Cl)cc2)c1	7.1µM*	.	.	.	.	.
Cc1ccc(N/N=C/c2cccc(C(F)(F)F)c2)cc1Cl	3.5µM*	.	.	.	.	.
FC(F)(F)c1ccc(/C=N/Nc2ccc(Cl)cc2)cc1	7.1µM*	.	.	.	.	.
CC1CCN(CCOCCOc2ccc(Br)cc2Cl)CC1	?	1%	-2%	-9%	0%	?
CC1CCCN(CCCOc2ccc(Br)cc2Cl)C1 (stereo unspecified)	1.1µM*	.	.	15%	-1%	2%
O=C(CCc1nc2ccccc2c(=O)[nH]1)Nc1ccc(F)c([N+](=O)[O-])c1	?	0%	6%	-29%	-11%	?
O=C(Nc1cc([N+](=O)[O-])c2[nH]c(=O)c3ccccc3c2c1)C(F)(F)F	3%	32µM*	.	14%	-3%	5%
CC1NCC[C@H](O)[C@@H]1C (stereo partly specified)	8%	.	.	.	.	.
O=C(Cc1ccc(F)cc1)N1CCOCC1	13%	-2%	.	-5%	1%	-4%
C=CCNc1nc(-c2ccc(S(=O)(=O)N3CCCCCC3)cc2)cs1	-3%	.	.	.	.	.
O=c1[nH]c2ccc(-c3csc(Nc4ccc(F)cc4)n3)cc2o1	18µM*	.	.	.	.	.
O=S(=O)(c1ccc(-c2csc(Nc3ccc(F)cc3)n2)cc1)N1CCCC1	?	20µM*	6%	2%	-3%	?
O=C(Cc1ccc(-c2csc(Nc3ccc(F)cc3)n2)s1)N1CCOCC1	32µM*	.	.	.	.	.
CCCNc1nc(-c2ccc(S(=O)(=O)N3CCCCCC3)cc2)cs1	32µM*	.	.	.	.	.

Compound profiles (already shown).
`O=C(CCc1nc2ccccc2c(=O)[nH]1)Nc1ccc(F)c([N+](=O)[O-])c1` is listed with ALOX12 inh = ?; ClpP mod = 0%; TDP1 block = 6%; Rango dissoc inh = -29%; TSG101-PTAP inh = -11%; Rango complex inh = ?
`O=C(Cc1ccc(-c2csc(Nc3ccc(F)cc3)n2)s1)N1CCOCC1` is listed with ALOX12 inh = 32µM*; ClpP mod = .; TDP1 block = .; Rango dissoc inh = .; TSG101-PTAP inh = .; Rango complex inh = .
`CC1NCC[C@H](O)[C@@H]1C` (stereo partly specified) is listed with ALOX12 inh = 8%; ClpP mod = .; TDP1 block = .; Rango dissoc inh = .; TSG101-PTAP inh = .; Rango complex inh = .

The list goes on:
SMILES	ALOX12 inh	ClpP mod	TDP1 block	Rango dissoc inh	TSG101-PTAP inh	Rango complex inh
CCCNC(=O)N1CCCC2(CCC(=O)N(Cc3cnc(C)cn3)C2)C1 (stereo unspecified)	63%	.	.	.	.	.
Cc1ccc(Nc2nc(-c3ccc(S(=O)(=O)N4CCOCC4)cc3)cs2)cc1	?	13µM*	.	-5%	-2%	-7%
Cc1cc(C(C)(C)CC(C)(C)C)ccc1OCCOCC[N+](C)(C)Cc1ccccc1	?	2%	12%[56.1 µM]	8%	2%	65µM*
C=CCSc1nnc(N2C(=O)C(O)=C(C(=O)c3ccco3)C2c2ccccc2F)s1 (stereo unspecified)	0.63µM*	-7%	9%	?	-10%	?
CCCSc1nnc(N2C(=O)C(O)=C(C(=O)c3ccco3)C2c2ccccc2F)s1 (stereo unspecified)	40µM*	-8%	9%	?	-3%	?
CSc1nnc(N2C(=O)C(O)=C(C(=O)c3ccco3)C2c2ccccc2F)s1 (stereo unspecified)	?	-12%	3%	?	-9%	?
Cc1ccc(C)c(NC(=O)c2ccc3ccccc3n2)c1	-8%	35µM*	2%	1%	-3%	-5%
Cc1ccc(S(=O)(=O)N(C)C)cc1NC(=O)c1ccc2ccccc2n1	-13%	-4%	3%	-7%	-1%	0%
CC1CCC(NC(=O)c2cc3ccccc3c(Cl)n2)CC1 (stereo unspecified)	40µM*	.	.	.	.	.
O=C(NC1CC1)c1cc(-c2ccccc2)nc2ccccc12	-6%	.	.	.	.	.
